# In ChEMBL document CHEMBL3286167 (J Med Chem, 2014):
# Amino acid sequences for entries named in this document (tags omitted).
# UniProt P20789, whole entry: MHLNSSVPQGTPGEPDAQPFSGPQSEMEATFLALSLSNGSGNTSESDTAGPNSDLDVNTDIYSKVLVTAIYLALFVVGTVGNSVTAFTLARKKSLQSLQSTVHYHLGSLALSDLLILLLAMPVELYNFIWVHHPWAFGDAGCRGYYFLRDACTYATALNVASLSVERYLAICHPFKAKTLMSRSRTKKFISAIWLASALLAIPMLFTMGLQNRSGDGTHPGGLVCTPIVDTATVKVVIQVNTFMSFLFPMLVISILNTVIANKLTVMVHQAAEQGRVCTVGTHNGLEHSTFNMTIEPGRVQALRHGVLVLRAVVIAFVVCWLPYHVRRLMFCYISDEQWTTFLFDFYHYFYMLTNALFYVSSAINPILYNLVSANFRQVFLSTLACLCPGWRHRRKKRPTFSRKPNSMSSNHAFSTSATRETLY
# The source made the active and inactive calls. The rule behind the calls is not given here.
# Tests used:
# [1] = target: Neurotensin receptor type 1 (Rattus norvegicus) (UniProt P20789); experiment: Antagonist activity at rat NTS1 stably expressed in CHOK1 cells assessed as inhibition of NT-induced calcium release by FLIPR assay; format: functional, cell-based; details: CHO-K1
# Outline: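 Rat NTS1 CHO-k1 cells, plated at 30000/well on the assay day. Cells were loaded with Calcium 5 dye (1:40 in HBSS, 20 mM HEPES, 2.5 mM probenecid, pH 7.4) for 45 min at 37 °C, then preincubated with compound for 15 min. […] Fluorescence (ex 485/em 525 nm) read for 60 s on FlexStation II; three-parameter logistic fit; at least three experiments in duplicate.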
# [2] = target: T1, Neurotensin receptor type 2 (Rattus norvegicus) (UniProt Q63384); experiment: Agonist activity at rat NTS2 stably expressed in CHOK1 cells assessed as induction of calcium release by FLIPR assay relative to SR142948a; format: functional, cell-based; details: CHO-K1
# T1 sequence (whole entry): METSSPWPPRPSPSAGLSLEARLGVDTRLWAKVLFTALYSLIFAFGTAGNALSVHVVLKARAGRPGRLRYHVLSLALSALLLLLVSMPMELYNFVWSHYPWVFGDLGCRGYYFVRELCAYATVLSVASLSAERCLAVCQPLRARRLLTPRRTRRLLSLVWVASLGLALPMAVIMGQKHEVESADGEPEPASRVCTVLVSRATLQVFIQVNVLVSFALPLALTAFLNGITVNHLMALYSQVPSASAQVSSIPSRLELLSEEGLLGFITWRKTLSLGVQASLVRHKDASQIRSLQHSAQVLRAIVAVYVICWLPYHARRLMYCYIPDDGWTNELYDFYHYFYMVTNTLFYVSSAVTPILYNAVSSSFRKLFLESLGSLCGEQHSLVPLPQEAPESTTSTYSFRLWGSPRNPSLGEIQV
# Outline: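 Rat NTS2 expressed in CHO-k1 cells, plated at 25000/well the day before the assay. Cells were loaded with Calcium 5 dye (1:20 in HBSS, 20 mM HEPES, 2.5 mM probenecid, pH 7.4) for 45 min at 37 °C, then pretreated with 10% DMSO added 1:10. Full-log compound dilutions were read on FLIPR Tetra every second for 100 s. Emax is expressed as % of the full-agonist standard; EC50 from a three-parameter logistic fit; at least three experiments in duplicate.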
Structure (SMILES),Ke [1],Emax [2]
COc1cccc(OC)c1-c1cc(C(=O)NC2C3CC4CC(C3)CC2C4)nn1-c1ccnc2cc(Cl)ccc12 (stereo not drawn),inactive,inactive
C[C@@H]1CN([C@H]2CC[C@](C#N)(c3ccc(F)cc3)CC2)CC[C@]1(C(=O)O)c1ccccc1 [LEVOCABASTINE],inactive,–
